Test results: publication PMC11939078, “TAK-994 mechanistic investigation into drug-induced liver injury” (Toxicological Sciences, 2025)

Assays:
human hepatocytes = tested on: human hepatocytes; design: method as in Thompson et al. 2012; conditions: ref Thompson et al. 2012; cited from earlier work
human liver microtissues = assay: LPS-sensitization assay in liver microtissues

Row | Compound | CVB of marketed drugs without high risk of hepatotoxicity (human hepatocytes) | sensitization of liver microtissues by LPS (innate immune activation) (human liver microtissues)
1 | CC(C)Cc1ccc(C(C)C(=O)O)cc1 (centres unmarked) [ibuprofen] | elevated CVB | 
2 | N[C@@H]1[C@H]2CN(c3nc4c(cc3F)c(=O)c(C(=O)O)cn4-c3ccc(F)cc3F)C[C@@H]12 [trovafloxacin, reference compound] |  | LPS sensitized liver microtissues
